Reference: paper PMC10424178, “Discovery of 5-Phenylpyrazolopyrimidinone Analogs as Potent Antitrypanosomal Agents with In Vivo Efficacy” (Journal of Medicinal Chemistry, 2023)

Test system: T. b. brucei
Test: Antitrypanosomal assay, T. brucei Squib 427, resazurin viability

| Compound | reduction in potency against T. b. brucei compared with 15 (relative to 15) | reduction in potency against T. b. brucei compared with 30 (relative to 30) |
| --- | --- | --- |
| COc1ccc(-c2nc3c(C(C)C)n[nH]c3c(=O)[nH]2)cc1 [compound 33, 3-Isopropyl-5-(4-methoxyphenyl)-1,6-dihydro-7H-pyrazolo[4,3-d]pyrimidin-7-one] | three times less active |  |
| CC(C)c1n[nH]c2c(=O)[nH]c(-c3ccc(Br)cc3)nc12 [compound 32, 5-(4-Bromophenyl)-3-isopropyl-1,6-dihydro-7H-pyrazolo[4,3-d]pyrimidin-7-one] |  | four-fold reduction in potency |
